Protein sequences, listed by entry. Tags and fused reporters are not part of them.
UniProt P33533, whole entry, looked up: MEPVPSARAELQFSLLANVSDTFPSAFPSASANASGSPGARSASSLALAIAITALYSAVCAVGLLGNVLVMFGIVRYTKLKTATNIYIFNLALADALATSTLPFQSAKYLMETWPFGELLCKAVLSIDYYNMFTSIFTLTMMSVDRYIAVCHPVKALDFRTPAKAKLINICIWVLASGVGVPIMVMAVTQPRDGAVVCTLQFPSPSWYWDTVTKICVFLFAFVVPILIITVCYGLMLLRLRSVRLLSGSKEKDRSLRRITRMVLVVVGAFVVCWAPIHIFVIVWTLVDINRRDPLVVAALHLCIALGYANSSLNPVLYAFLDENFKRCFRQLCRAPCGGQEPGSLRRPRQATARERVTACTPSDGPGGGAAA
UniProt P33535, whole entry, looked up: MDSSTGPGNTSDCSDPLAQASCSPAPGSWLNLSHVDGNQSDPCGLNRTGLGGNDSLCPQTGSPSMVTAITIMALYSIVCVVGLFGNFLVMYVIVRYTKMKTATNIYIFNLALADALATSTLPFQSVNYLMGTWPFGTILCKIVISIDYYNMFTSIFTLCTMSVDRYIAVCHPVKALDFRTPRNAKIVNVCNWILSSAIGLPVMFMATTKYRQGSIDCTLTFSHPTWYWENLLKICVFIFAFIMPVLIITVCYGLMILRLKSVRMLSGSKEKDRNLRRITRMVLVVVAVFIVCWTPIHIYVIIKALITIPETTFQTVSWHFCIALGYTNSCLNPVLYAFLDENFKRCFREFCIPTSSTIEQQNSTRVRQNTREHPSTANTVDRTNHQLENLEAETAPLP

Each compound was assayed against Opioid receptors; mu & delta (Rattus norvegicus) (UniProt P33533+P33535) (assay: Ratio of binding affinity against rat brain delta opioid receptor to that of mu opioid receptor).
`Cc1cc(O)cc(C)c1C[C@H](N)C(=O)N1CCC[C@H]1C(=O)N[C@@H](Cc1ccccc1)C(=O)Nc1cccnc1` was tested, and the Ratio was 1730.
For `Cc1cc(O)cc(C)c1C[C@H](N)C(=O)N1CCC[C@H]1C(=O)N[C@@H](Cc1ccccc1)C(=O)NCc1ccccc1`, the Ratio was 27.
`Cc1cc(O)cc(C)c1C[C@H](N)C(=O)N1CCC[C@H]1C(=O)N[C@@H](Cc1ccccc1)C(=O)Nc1ccc2ncccc2c1` showed a Ratio of 212.
Work on `Cc1cc(O)cc(C)c1C[C@H](N)C(=O)N1CCC[C@H]1C(=O)N[C@@H](Cc1ccccc1)C(=O)Nc1cccc2cnccc12` yielded a Ratio of 517.
In the case of `Cc1cc(O)cc(C)c1C[C@H](N)C(=O)N1CCC[C@H]1C(=O)N[C@@H](Cc1ccccc1)C(=O)Nc1cccc2cccnc12`, the Ratio is reported as 68.
In the case of `Cc1cc(O)cc(C)c1C[C@H](N)C(=O)N1CCC[C@H]1C(=O)N[C@@H](Cc1ccccc1)C(=O)Nc1ccncc1`, the Ratio is reported as 424.
In the case of `Cc1cc(O)cc(C)c1C[C@H](N)C(=O)N1CCC[C@H]1C(=O)N[C@@H](Cc1ccccc1)C(=O)Nc1ccccc1`, the Ratio is reported as 19.
For `Cc1cc(O)cc(C)c1C[C@H](N)C(=O)N1CCC[C@H]1C(=O)N[C@@H](Cc1ccccc1)C(=O)Nc1ccccn1`, the Ratio was 1190.

Source: ChEMBL document CHEMBL1148353, “Development of potent bifunctional endomorphin-2 analogues with mixed mu-/delta-opioid agonist and delta-opioid antagonist properties” (J Med Chem, 2004)
